{"sequences": {"note": "Protein sequences, listed by entry. Tags and fused reporters are not part of them.", "UniProt Q9AIU0, whole entry E78A": "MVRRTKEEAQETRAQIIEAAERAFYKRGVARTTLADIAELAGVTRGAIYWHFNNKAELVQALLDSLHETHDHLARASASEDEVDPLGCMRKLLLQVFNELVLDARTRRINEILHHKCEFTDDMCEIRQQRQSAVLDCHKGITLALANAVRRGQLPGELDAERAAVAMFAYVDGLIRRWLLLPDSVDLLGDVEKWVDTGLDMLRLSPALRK", "UniProt Q9AIU0, whole entry N110A": "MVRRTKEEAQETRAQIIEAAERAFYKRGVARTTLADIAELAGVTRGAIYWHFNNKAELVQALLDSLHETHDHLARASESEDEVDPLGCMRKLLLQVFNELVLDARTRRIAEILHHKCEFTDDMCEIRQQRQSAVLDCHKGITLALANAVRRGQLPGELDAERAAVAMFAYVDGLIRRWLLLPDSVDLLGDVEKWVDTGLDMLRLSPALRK", "UniProt Q9AIU0, whole entry H114A": "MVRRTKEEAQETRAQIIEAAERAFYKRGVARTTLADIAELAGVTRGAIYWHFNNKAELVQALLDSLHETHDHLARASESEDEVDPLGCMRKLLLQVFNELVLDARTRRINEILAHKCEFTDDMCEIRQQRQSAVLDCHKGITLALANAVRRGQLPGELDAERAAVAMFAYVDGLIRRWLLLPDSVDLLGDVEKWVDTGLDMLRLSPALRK"}, "source": "paper PMC4589371", "about": "“Molecular Binding Mechanism of TtgR Repressor to Antibiotics and Antimicrobials” (PLoS ONE, 2015)", "key": {"TtgR (TtgR^WT) [1]": {"target": "TtgR (TtgR^WT) (Pseudomonas putida, UniProt Q9AIU0, E78A)", "assay": "biochemical", "source_text": "(§1) isothermal titration calorimetry, one set of sites on TtgR (TtgR^WT)"}, "TtgR (TtgR^WT) [2]": {"target": "TtgR (TtgR^WT) (Pseudomonas putida, UniProt Q9AIU0, N110A)", "assay": "biochemical", "source_text": "as §1"}, "TtgR (TtgR^WT) [3]": {"target": "TtgR (TtgR^WT) (Pseudomonas putida, UniProt Q9AIU0, H114A)", "assay": "biochemical", "source_text": "as §1"}, "TtgR (TtgR^WT) [4]": {"target": "T1, TtgR (TtgR^WT) (Pseudomonas putida, UniProt Q9AIU0)", "T1 construct": "homodimer", "assay": "isothermal titration calorimetry, one set of sites", "assay_type": "binding"}}}
{"smiles": "O=C1C[C@@H](c2ccc(O)cc2)Oc2cc(O)cc(O)c21", "note": "[naringenin]", "values": [{"measurement": "Kd", "setting": "TtgR (TtgR^WT) [1]", "value": "21.8 ± 0.6", "unit": "µM"}, {"measurement": "Kd", "setting": "TtgR (TtgR^WT) [2]", "value": "18.1 ± 1", "unit": "µM"}, {"measurement": "Kd", "setting": "TtgR (TtgR^WT) [3]", "value": "22 ± 0.8", "unit": "µM"}, {"measurement": "Kd", "setting": "TtgR (TtgR^WT) [4]", "value": "16 ± 2", "unit": "µM"}]}
